Source: patent publication US20250042939A1, “PREPARATION METHOD FOR OXIDIZED GLUTATHIONE AND CRYSTAL FORM AND IMPURITY THEREOF” (SHENYANG XINGQI PHARMACEUTICAL CO., LTD., priority 2021, published 2025)

Experiment: Saturation solubility of oxidized glutathione hydrate in water
Format: physicochemical
Conditions: H2O, 30° C.
From the text: Moreover, compared with the powdered crystals of the hexahydrate which are prone to generate static electricity and suffer a large amount of loss during a packaging process, the granular crystals of the obtained heptahydrate are more suitable for industrial production.

Substance: oxidized glutathione monohydrate
- Saturation solubility: 13.5 mg/mL
